Results: DBAASP

Key:
Test in all cases: ≥ marks a high value that may be exact or a test limit, other limits are often not marked, values filed in µg/mL are converted to µM
Escherichia coli BL21 = system: Escherichia coli BL21
[1] = system: Streptococcus pyogenes M1T1 5448
[2] = system: Pseudomonas aeruginosa PAO1
[3] = system: Pseudomonas syringae pv. syringae EPS 94
[4] = system: Erwinia amylovora PMV 6076

Compound	MIC (Escherichia coli BL21) [µM]	MIC [1] [µM]	MIC [2] [µM]	MIC [3] [µM]	MIC [4] [µM]
CC[C@H](C)[C@H](NC(=O)[C@H](CO)NC(=O)[C@H](CCC(=O)O)NC(=O)[C@H](CCCN=C(N)N)NC(=O)[C@H](Cc1c[nH]c2ccccc12)NC(=O)[C@H](C)N)C(=O)N[C@@H](CCCCN)C(=O)N[C@@H](C)C(=O)N[C@@H](Cc1ccc(O)cc1)C(=O)N[C@@H](CC(C)C)C(=O)N[C@@H](CCCCN)C(=O)N[C@@H](CCCCN)C(=O)N[C@@H](CCC(=O)O)C(=O)N[C@H](C(=O)N[C@@H](CCCCN)C(=O)N[C@@H](CCCCN)C(=O)N[C@@H](CCCCN)C(=O)NCC(=O)N[C@@H](CCCCN)C(=O)N[C@@H](CCCN=C(N)N)C(=O)N[C@H](C(=O)N[C@H](C(=O)N[C@@H](C)C(=O)N[C@@H](C)C(=O)N[C@@H](Cc1c[nH]c2ccccc12)C(=O)O)C(C)C)[C@@H](C)CC)[C@@H](C)CC [AWRESIKAYLKKEIKKKGKRIVAAW]	4 (≈ 12 µg/mL)	16 (≈ 48 µg/mL)	32 (≈ 96.1 µg/mL)	–	–
CC[C@H](C)[C@H](NC(=O)[C@H](CC(C)C)NC(=O)[C@H](C)NC(=O)[C@@H]1CCCN1C(=O)[C@H](CC(C)C)NC(=O)CNC(=O)[C@@H](NC(=O)[C@@H](NC(=O)[C@H](C)NC(=O)[C@@H]1CCCN1C(=O)CNC(=O)[C@H](C)NC(=O)[C@H](CC(C)C)NC(=O)[C@H](Cc1ccc(O)cc1)NC(=O)[C@H](CCCCN)NC(=O)[C@H](CC(C)C)NC(=O)[C@@H](NC(=O)[C@H](CCCCN)NC(=O)[C@H](CCCCN)NC(=O)[C@H](Cc1ccccc1)NC(=O)[C@H](CC(C)C)NC(=O)[C@H](CCCCN)NC(=O)[C@H](CCCCN)NC(=O)CN)[C@@H](C)CC)[C@@H](C)O)[C@@H](C)O)C(=O)N[C@@H](CO)C(=O)N[C@@H](Cc1c[nH]c2ccccc12)C(=O)O [GKKLFKKILKYLAGPATTGLPALISW]	–	–	–	1.77 (≈ 4.98 µg/mL)	1.77 (≈ 4.98 µg/mL)

Converted amounts (≈) assume the structure as drawn.
